Molecular target: T1, hMC4R (Homo sapiens, UniProt P32245)
T1 construct: expressed in transfected cells; host or cells: HEK293T
Assay: Intracellular cAMP signaling (radioimmunoassay)
Assay type: cell-based
Settings: HEK293T cells, reference set to 100

Protein sequences, listed by entry. Tags and fused reporters are not part of them.
UniProt P32245, whole entry: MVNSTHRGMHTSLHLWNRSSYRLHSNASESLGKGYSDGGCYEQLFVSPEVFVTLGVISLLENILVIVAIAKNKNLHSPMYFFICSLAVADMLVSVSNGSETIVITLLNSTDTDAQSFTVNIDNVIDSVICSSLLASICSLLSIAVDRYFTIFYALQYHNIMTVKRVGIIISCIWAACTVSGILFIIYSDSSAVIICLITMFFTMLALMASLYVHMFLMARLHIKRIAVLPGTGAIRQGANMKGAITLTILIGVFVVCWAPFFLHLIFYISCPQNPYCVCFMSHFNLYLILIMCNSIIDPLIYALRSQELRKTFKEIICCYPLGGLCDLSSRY

O=C(N[C@H](Cc1ccc(Cl)cc1)C(=O)N1CCC(Cn2cncn2)(C2CCCCC2)CC1)[C@H]1Cc2ccccc2CN1 [THIQ, N-[(3R)-1,2,3,4-Tetrahydroisoquinolinium-3-ylcarbonyl]-(1R)-1-(4-chlorobenzyl)-2-[4-cyclohexyl-4-(1H-1,2,4-triazol-1-ylmethyl)piperidin-1-yl]-2-oxoethylamine]
Rmax (cAMP): 100%
